Reference: patent publication US10947239B2, “[1,2,4]triazolo[1,5-a]pyrimidin-7-yl compound” (Janssen Pharmaceutica NV, priority 2015, dated 2021)

By UniProt entry, the sequences of proteins in these tests, tags left out.
UniProt O00408, whole entry: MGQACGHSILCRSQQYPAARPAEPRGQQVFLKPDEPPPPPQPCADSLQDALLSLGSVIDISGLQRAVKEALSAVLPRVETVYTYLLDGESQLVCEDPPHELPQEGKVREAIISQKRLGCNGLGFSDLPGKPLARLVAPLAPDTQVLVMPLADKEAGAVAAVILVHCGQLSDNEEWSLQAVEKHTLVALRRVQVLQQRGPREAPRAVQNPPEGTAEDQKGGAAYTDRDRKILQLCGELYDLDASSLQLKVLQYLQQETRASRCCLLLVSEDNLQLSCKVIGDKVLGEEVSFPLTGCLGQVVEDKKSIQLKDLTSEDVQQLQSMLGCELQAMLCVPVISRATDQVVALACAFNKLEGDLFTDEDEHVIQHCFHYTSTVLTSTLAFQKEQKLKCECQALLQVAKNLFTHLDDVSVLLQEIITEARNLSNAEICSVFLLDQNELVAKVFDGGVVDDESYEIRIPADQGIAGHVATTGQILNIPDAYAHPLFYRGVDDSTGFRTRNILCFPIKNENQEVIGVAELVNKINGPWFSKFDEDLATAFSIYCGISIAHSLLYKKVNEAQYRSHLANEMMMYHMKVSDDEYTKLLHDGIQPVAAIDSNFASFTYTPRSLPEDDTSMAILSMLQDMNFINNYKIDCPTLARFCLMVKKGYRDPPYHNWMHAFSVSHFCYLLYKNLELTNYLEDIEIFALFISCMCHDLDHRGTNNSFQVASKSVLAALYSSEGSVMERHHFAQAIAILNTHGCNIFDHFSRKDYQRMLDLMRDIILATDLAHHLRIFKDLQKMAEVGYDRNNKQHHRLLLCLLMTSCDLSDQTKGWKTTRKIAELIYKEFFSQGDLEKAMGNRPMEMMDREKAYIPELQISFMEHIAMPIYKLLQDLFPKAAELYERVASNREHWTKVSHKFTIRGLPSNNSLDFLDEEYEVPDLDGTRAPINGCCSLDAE
UniProt Q9QYJ6, whole entry: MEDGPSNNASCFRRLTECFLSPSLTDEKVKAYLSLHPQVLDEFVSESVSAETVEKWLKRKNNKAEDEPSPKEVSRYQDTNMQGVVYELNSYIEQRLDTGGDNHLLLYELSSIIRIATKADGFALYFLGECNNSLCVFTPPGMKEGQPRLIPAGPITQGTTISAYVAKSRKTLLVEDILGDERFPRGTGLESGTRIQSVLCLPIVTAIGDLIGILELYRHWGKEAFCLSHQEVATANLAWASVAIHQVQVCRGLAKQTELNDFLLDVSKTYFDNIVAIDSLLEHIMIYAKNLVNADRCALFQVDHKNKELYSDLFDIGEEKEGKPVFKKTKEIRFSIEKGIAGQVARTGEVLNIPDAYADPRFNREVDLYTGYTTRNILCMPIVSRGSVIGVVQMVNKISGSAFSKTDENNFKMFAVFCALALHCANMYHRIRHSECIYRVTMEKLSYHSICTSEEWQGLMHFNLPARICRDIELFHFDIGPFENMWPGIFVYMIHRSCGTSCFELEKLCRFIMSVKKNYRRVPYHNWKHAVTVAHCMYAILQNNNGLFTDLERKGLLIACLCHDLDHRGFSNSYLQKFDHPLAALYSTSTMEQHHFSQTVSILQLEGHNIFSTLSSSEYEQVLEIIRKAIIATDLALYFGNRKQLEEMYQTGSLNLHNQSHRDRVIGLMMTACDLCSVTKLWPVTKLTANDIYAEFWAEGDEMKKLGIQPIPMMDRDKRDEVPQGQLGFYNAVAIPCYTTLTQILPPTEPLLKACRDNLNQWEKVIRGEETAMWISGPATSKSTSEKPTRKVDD
UniProt Q14432, whole entry: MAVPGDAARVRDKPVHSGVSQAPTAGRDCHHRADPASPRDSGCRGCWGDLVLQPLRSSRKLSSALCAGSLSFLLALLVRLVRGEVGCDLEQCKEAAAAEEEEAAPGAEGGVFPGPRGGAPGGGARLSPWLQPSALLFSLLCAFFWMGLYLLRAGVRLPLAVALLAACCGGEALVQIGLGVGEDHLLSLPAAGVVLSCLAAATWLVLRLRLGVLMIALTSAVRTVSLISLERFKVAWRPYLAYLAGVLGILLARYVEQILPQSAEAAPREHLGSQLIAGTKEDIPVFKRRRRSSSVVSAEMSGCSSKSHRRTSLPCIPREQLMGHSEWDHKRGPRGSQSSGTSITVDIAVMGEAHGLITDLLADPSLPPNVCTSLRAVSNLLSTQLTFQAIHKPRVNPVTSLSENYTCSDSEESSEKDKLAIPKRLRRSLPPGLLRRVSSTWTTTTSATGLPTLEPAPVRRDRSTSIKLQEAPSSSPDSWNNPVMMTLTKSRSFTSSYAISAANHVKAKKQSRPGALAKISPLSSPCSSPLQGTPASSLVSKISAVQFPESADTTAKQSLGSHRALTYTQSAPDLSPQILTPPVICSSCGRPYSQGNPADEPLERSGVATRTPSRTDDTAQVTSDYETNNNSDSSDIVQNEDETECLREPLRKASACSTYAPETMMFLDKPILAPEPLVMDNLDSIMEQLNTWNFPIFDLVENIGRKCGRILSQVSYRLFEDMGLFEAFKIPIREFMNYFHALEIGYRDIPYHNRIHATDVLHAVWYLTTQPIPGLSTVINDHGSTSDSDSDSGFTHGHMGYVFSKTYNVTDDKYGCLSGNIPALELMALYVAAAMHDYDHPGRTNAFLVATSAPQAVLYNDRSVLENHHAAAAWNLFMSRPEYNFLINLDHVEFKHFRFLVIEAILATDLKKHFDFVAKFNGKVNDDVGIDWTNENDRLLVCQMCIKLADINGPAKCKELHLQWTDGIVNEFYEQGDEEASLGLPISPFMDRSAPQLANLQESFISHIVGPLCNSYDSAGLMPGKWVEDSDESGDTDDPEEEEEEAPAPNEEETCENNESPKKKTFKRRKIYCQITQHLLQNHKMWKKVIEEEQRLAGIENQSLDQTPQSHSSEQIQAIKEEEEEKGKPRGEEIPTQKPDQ

Assays:
[1] = target: Human recombinant PDE2A (hPDE2A) (Homo sapiens (Human), UniProt O00408); assay: In vitro assay PDE2A (SPA, 3H-cGMP)
[2] = target: Rat recombinant PDE10A (rPDE10A2) (Rattus norvegicus (Rat), UniProt Q9QYJ6); assay: In vitro assay PDE10A (SPA, 3H-cAMP); conditions: −log IC50 expressed in mol/L
[3] = target: Human recombinant PDE3A (hPDE3A) (Homo sapiens, UniProt Q14432); assay: In vitro assay PDE3A (SPA, 3H-cAMP); conditions: −log IC50 expressed in mol/L; method describes hPDE3A
Description: Human recombinant PDE3A (hPDE3A) was supplied as a partially purified insect cell lysate by Scottish Biomedical, it was cloned from human brain and expressed in Sf9 cells. Tested compounds were dissolved and diluted in 100% DMSO to a concentration 100 fold of the final concentration in the assay. Compound dilutions (0.4 μl) were added in 384 well plates to 20 μl of incubation buffer (50 mM Tris pH 7.8, 8.3 mM MgCl2, 1.7 mM EGTA). 10 μl of hPDE3A enzyme in incubation buffer was added and the reaction was started by addition of 10 μl substrate to a final concentration of 0.4 μM cAMP and 2.4 μCi/ml [^3H]-cAMP. The reaction was incubated for 60 min at room temperature. After incubation, the reaction was stopped with 20 μl of stop solution consisting of 17.8 mg/ml PDE SPA (scintillation proximity assay) beads supplemented with 200 mM ZnCl2. After sedimentation of the beads during 30 min the radioactivity was measured in a Perkin Elmer Topcount scintillation counter and results were expressed as cpm. For blanc values the enzyme was omitted from the reaction and replaced by incubation buffer. Control values were obtained by addition of a final concentration of 1% DMSO instead of compound. […]

Cc1cc(C(=O)N2CC[C@@H](C)[C@H](c3cc(C(F)F)nc4ncnn34)C2)cc(C)n1 [Compound 1]
IC50 ([1]; read-out: IC50 PDE2A, hPDE2A, 10 μM cGMP): 0.7 nM
pIC50 (PDE2A) ([1]; −log IC50 expressed in mol/L): 9.11
pIC50 PDE10A2 [2]: 6.93
pIC50 PDE3B [3]: 5.15
